Ab-14 light chain CDR variants: yeast mating affinities

The target is the same throughout: PDVDLGDISGINAS, from the HR2 region of SARS-CoV-2 spike.

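The starting antibody came from a phage panning campaign against this peptide. These sequences belong to a second round, designed from the earlier measurements on random variants of the parent. Their group label is 14L_En_Gen (En: ensemble of fine-tuned language models; Gen: genetic algorithm). Affinity was read by AlphaSeq, a pooled yeast mating assay with surface-displayed partners. Mating (16 h, 30 °C) was followed by selection of diploids and sequencing of their barcodes. Each replicate has its own calibration line, from reference interactions of the BCL2 family. There are six technical replicates.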

Parent scFv Ab-14: VH joined to VL by the linker GGGGSGGGGSGGGGS. Changes lie in the light chain CDRs alone.
VH: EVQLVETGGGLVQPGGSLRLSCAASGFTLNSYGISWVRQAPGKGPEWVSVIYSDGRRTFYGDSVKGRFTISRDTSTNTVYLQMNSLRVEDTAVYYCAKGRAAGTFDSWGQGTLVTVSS
VL: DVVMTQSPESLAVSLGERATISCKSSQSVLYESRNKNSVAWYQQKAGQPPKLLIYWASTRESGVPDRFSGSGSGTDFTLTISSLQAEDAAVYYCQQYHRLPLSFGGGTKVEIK

The parent's light chain CDRs are KSSQSVLYESRNKNSVA, WASTRES, QQYHRLPLS; each variant's own CDRs replace them letter for letter. Affinities are written as log10 Kd with Kd in nM; a lower number is a better binder. A mean of the replicates is given; it leaves out those without a signal. "nd" means that the variant was in the library but no mating with the target was seen in that replicate; the authors take this as a sign of poor binding, and no number exists. Background: pairings of all light chain designs with three empty control strains gave a value in 4% of cases (median 2.64, 5th percentile 1.59). Values in that range, when seen in few replicates, are hard to tell from nonspecific mating. For each scFv, signals with the empty controls are counted beside the result, with their mean in brackets. Values of this round are not directly comparable with the first-round values of the same sequences. The authors' rule: three or more of the six replicates give a measured affinity, fewer mean a poor binder.

CDR-L1,CDR-L2,CDR-L3,log10 Kd (nM) by replicate,"mean, log10 nM",signal with controls
KFSQMVNTMSVSHSAVA,EMSTRPE,QQYNRLPLA,-0.10 / 0.13 / -0.08 / -0.25 / -0.04 / 0.04,-0.05,0 of 18
MVNGITDHLSKNKNSVA,ETVTREE,QQYDRLPLS,0.64 / 0.86 / 0.54 / 0.66 / 0.68 / 0.99,0.73,0 of 18
MVYESMDQAMRTHNSIA,DNQTRES,QQYDRLPLS,nd / 2.63 / 2.12 / 2.33 / 2.79 / 2.13,2.40,1 of 18 (2.87)
KLANVTGTEKVKGNNVA,EMETRER,QQYNRLPLS,0.50 / 0.25 / 0.12 / 0.09 / -0.03 / 0.37,0.22,1 of 18 (2.71)
MISQLYNMGTFAINSVA,QASIRNE,QQYDRLPLA,nd / nd / 1.78 / nd / 2.61 / 2.22,2.20,0 of 18
MMSQVTGQGQRHRNNVA,QTSTREP,QQYDRLPLV,1.54 / 1.87 / 1.99 / 1.58 / 1.70 / 1.59,1.71,1 of 18 (3.02)
TISQMTSLFSQTINNVA,EVSTREN,QQYDRLPLM,0.74 / 0.37 / 0.28 / 0.75 / 0.49 / 0.61,0.54,1 of 18 (3.21)
KISMLHNQTFEQSNNVA,EMVTRMN,QQYHRLPLS,0.20 / 0.29 / 0.40 / 0.25 / 0.40 / 0.25,0.30,0 of 18
KLVNFMNRGTHHTSNIA,DAQTRLD,QQYARLPLA,-0.06 / 0.57 / 0.29 / -0.02 / 0.31 / 0.74,0.31,0 of 18
KLSSTAETEHVNRNSVA,ELVTRMK,QQYNRLPLS,1.05 / 0.45 / 0.81 / 0.34 / 0.59 / 0.81,0.67,1 of 18 (1.70)
KLASVTGTEKVHGNNVA,EMETRES,QQYNRLPLS,1.23 / 1.11 / 0.23 / 0.77 / 0.48 / 1.41,0.87,0 of 18
MMSSLMGYESRHINNVA,QTTTRES,QQYDRLPLI,0.31 / -0.03 / -0.13 / -0.35 / 0.03 / 0.26,0.01,1 of 18 (2.05)
KLAMITGLEKVSGNNVA,EMETRER,QQYNRLPLA,0.64 / 0.59 / 0.69 / 0.76 / 1.01 / 0.73,0.74,0 of 18
KIGATLNQLMHQKNNVA,DLVEREN,QQYHRLPLS,-0.23 / -0.27 / -0.36 / 0.01 / -0.34 / -0.57,-0.29,0 of 18
MVTQMAMSGMTNKRSVA,NAETRED,QQYHHLPLI,0.64 / 0.34 / 0.17 / 0.28 / 0.47 / 0.51,0.40,2 of 18 (2.40)
HMSMLTLQGMRHRNSVA,QMTTREN,QQYDHLPLA,1.24 / 1.14 / 1.33 / 1.57 / 1.80 / 1.47,1.42,1 of 18 (3.73)
HLSHMSGVESVKHNSVA,ENSTRAN,QQYDRLPLA,2.19 / 2.05 / 2.35 / 2.48 / 2.52 / 2.55,2.36,2 of 18 (2.18)
KLTATMRFEQKISNNIA,EVTQRSK,QQYARLPLS,nd / 2.06 / 1.44 / 1.80 / 1.79 / 1.67,1.75,1 of 18 (2.63)
KLSFTTEMEHVNRNSVA,ELVTRMQ,QQYNRLPLS,0.27 / 0.13 / 0.01 / -0.05 / 0.12 / 0.32,0.13,1 of 18 (2.85)
KLSMITGHMSVSKNNVA,EMVTRVN,QQYARLPLS,0.28 / 0.67 / 1.46 / 1.43 / 0.53 / 0.58,0.83,0 of 18
KISQMVRVGSTVSNSIA,EMETRAN,QQYHRLPLA,0.82 / 0.58 / 1.61 / 0.46 / 0.79 / 0.71,0.83,1 of 18 (2.28)
TISGMTNQAMSKHNSVA,NVTMRPD,QQYHRLPLS,nd / 1.23 / nd / 1.91 / nd / 2.73,1.96,0 of 18
MISQMYNMGQFAINSVA,QASQRCN,QQYDRLPLM,nd / nd / -0.35 / 0.27 / 0.86 / 0.40,0.29,0 of 18
TISSVMNHMTRINNNVA,NQDMREA,QQYDRLPLS,0.88 / 0.01 / 0.32 / -0.20 / -0.13 / -0.08,0.13,0 of 18
KISFLTNQTFEQSNNVA,EMVTREK,QQYNRLPLS,0.43 / 0.79 / 0.77 / 0.32 / 0.59 / 1.07,0.66,0 of 18
TLSQMSGVEAVKHNNVA,ENSTREE,QQYDRLPLA,1.71 / 0.99 / 0.80 / 1.67 / 1.59 / 1.87,1.44,0 of 18
KVSEFMRGLMKKQDSIA,DNVTRNN,QQYDRLPLS,0.89 / 1.58 / 1.38 / 1.84 / 1.52 / 1.75,1.49,1 of 18 (2.53)
MISQLMNMGQFAINSVA,QASLRYN,QQYDRLPLA,nd / nd / nd / nd / nd / nd,nd,0 of 18
MISQLYNIGTFAINSVA,QASLRCN,QQYDRLPLM,nd / nd / nd / nd / nd / nd,nd,0 of 18
TISQMTSWMSNKKNNVA,EVSTREP,QQYDRLPLS,1.01 / 0.48 / 0.83 / 0.90 / 1.12 / 0.85,0.87,0 of 18

The last 3 entries again:

{"CDR-L1": "MISQLMNMGQFAINSVA", "CDR-L2": "QASLRYN", "CDR-L3": "QQYDRLPLA", "log10 Kd (nM) by replicate": "nd / nd / nd / nd / nd / nd", "mean, log10 nM": "nd", "signal with controls": "0 of 18"}
{"CDR-L1": "MISQLYNIGTFAINSVA", "CDR-L2": "QASLRCN", "CDR-L3": "QQYDRLPLM", "log10 Kd (nM) by replicate": "nd / nd / nd / nd / nd / nd", "mean, log10 nM": "nd", "signal with controls": "0 of 18"}
{"CDR-L1": "TISQMTSWMSNKKNNVA", "CDR-L2": "EVSTREP", "CDR-L3": "QQYDRLPLS", "log10 Kd (nM) by replicate": "1.01 / 0.48 / 0.83 / 0.90 / 1.12 / 0.85", "mean, log10 nM": "0.87", "signal with controls": "0 of 18"}

Data: MIT Lincoln Laboratory AlphaSeq set, Li et al. 2023, doi:10.1038/s41467-023-39022-2, as distributed in FLAb.